Reference: ChEMBL document CHEMBL1126090, “Electrophilic opioid ligands. Oxygen tethered alpha-methylene-gamma-lactone, acrylate, isothiocyanate, and epoxide derivatives of 6 beta-naltrexol” (J Med Chem, 1992)

The chains behind the UniProt entries cited, without tags or fusion partners. Where a name states a change or a piece, a line headed by the entry shows the natural chain unless it says otherwise.
UniProt P97266, whole entry, looked up: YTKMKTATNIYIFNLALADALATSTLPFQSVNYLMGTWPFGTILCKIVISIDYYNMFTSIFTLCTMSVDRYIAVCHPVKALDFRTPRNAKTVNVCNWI
UniProt P41143, whole entry, looked up: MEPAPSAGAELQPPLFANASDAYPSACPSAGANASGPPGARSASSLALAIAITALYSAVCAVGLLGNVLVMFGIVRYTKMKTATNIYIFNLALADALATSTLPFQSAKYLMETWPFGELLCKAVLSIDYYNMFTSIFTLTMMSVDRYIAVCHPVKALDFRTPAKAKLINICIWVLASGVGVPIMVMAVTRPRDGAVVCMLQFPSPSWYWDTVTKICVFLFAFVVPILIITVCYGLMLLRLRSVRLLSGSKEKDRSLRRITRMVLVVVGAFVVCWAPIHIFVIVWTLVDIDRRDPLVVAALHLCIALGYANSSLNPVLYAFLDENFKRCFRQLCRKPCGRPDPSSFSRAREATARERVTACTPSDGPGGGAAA
UniProt P41145: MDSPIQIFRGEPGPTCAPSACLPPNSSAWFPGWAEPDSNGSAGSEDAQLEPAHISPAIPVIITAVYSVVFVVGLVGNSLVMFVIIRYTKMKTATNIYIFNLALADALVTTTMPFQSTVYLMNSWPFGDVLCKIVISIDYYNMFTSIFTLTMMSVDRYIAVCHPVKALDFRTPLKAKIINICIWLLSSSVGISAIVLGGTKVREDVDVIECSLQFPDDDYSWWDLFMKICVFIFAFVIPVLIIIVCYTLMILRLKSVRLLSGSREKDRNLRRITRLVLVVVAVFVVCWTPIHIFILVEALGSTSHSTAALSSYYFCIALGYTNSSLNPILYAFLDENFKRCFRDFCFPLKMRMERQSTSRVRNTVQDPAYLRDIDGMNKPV
UniProt P35372, whole entry, looked up: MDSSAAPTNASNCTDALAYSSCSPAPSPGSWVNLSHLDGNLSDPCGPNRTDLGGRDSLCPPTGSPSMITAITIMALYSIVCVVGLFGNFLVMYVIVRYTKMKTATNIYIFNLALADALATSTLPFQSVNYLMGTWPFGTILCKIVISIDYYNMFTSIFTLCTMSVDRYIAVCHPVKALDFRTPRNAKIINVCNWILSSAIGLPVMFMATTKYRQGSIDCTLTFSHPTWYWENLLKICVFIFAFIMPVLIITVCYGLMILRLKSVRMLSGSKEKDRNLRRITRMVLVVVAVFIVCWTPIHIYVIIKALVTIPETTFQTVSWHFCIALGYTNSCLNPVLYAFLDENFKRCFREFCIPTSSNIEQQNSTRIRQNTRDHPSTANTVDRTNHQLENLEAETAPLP

Experiments:
[1] = molecular target: Mu-type opioid receptor (Cavia porcellus) (UniProt P97266); assay: Compound was evaluated for the percent recovery of 1.0 nM of [3H]- DAGO binding to mu opioid receptor in washed guinea pig brain membranes at 10(nM) concentration; conditions: Membrane
[2] = molecular target: Delta-type opioid receptor (Homo sapiens) (UniProt P41143); assay: Compound was evaluated for the percent recovery of 1.0 nM of [3H]- DPDPE binding to Opioid receptor delta 1 in guinea pig brain membranes at 4(nM) concentration protection by 1 uM Naloxone.; conditions: Cavia porcellus, Membrane
[3] = molecular target: Mu-type opioid receptor (Cavia porcellus) (UniProt P97266); assay: Compound was evaluated for the percent recovery of 1.0 nM of [3H]- DAGO binding to opioid receptor mu in un washed guinea pig brain membranes at 10 (nM) concentration; conditions: Membrane
[4] = molecular target: Delta-type opioid receptor (Homo sapiens) (UniProt P41143); assay: Compound was evaluated for the percent recovery of 1.0 nM of [3H]- DPDPE binding to Opioid receptor delta 1 in washed guinea pig brain membranes at 4(nM) concentration; conditions: Cavia porcellus, Membrane
[5] = molecular target: Delta-type opioid receptor (Homo sapiens) (UniProt P41143); assay: Compound was evaluated for the percent recovery of 1.0 nM of [3H]- DPDPE binding to Opioid receptor delta 1 in un washed guinea pig brain membranes at 4(nM) concentration; conditions: Cavia porcellus, Membrane
[6] = molecular target: T1, Opioid receptors; mu/kappa/delta (Homo sapiens) (UniProt P41145+P41143+P35372); assay: Compound was evaluated for the percent recovery of 0.5 nM of [3H]- bremazocine binding to of total opioid receptor in washed guinea pig brain membranes at 20 (nM) concentration of the compound; conditions: Cavia porcellus, Membrane
[7] = molecular target: T1, Opioid receptors; mu/kappa/delta (Homo sapiens); assay: Compound was evaluated for the percent recovery of 0.5 nM of [3H]- bremazocine binding to of total opioid receptor in unwashed guinea pig brain membranes at 20(nM) concentration of the compound; conditions: Cavia porcellus, Membrane
[8] = molecular target: T1, Opioid receptors; mu/kappa/delta (Homo sapiens); assay: Compound was evaluated for the percent recovery of 0.5 nM of [3H]- bremazocine binding to total opioid receptor in guinea pig brain membranes at 20 (nM) concentration protection by 1 uM Naloxone.; conditions: Cavia porcellus, Membrane

For `C=C(CO[C@@H]1CC[C@@]2(O)[C@H]3Cc4ccc(O)c5c4[C@@]2(CCN3CC2CC2)[C@H]1O5)C(=O)OC`, the % recovery [1] was 59, the % recovery [2] was 97 and the % recovery [3] was 21. For the same compound, the % recovery [4] was 42, the % recovery [5] was 5 and the % recovery [6] was 60. It also gave a % recovery [7] of 35 and a % recovery [8] of 90.
